The values below come from patent US12552834B2, “Selective MENA binding peptides” (MASSACHUSETTS INSTITUTE OF TECHNOLOGY, priority 2021, dated 2026).

By UniProt entry, the sequences of proteins in these tests, tags left out. Chains listed by the source or under a name are the forms on record and can include a tag or linker.
UniProt Q8N8S7, with tags, fused parts or gaps: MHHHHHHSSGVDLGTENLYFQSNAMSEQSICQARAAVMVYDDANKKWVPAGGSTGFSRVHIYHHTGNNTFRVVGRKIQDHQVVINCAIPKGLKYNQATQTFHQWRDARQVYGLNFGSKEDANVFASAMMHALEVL

This assay addresses T1, ENAH EVH1 domain (Homo sapiens, UniProt Q8N8S7).
T1 construct: places a 6×-His and TEV cleavage tag N-terminal to the EVH1 domain; 6×-His + TEV cleavage site (N, cleaved yes); made in house; host or cells: E. coli Rosetta2(DE3)
The experiment in a line: Biolayer interferometry (BLI), SUMO-peptide fusions binding monomeric ENAH EVH1 domain WT. The method, then: All BLI experiments were performed with 2 replicates on an Octet Red96 instrument (ForteBio). […] The loaded tips were immersed in a solution of ENAH EVH1 domain at a relevant dilution series in BLI buffer at an orbital shake speed of 1000 rpm and run until the binding signal plateaued. ENAH-bound tips were subsequently placed into BLI buffer only for dissociation and run until the binding signal plateaued. KD values were obtained through steady state analysis. […] The association phases were then fit to a one-phase binding model in Prism and the equilibrium steady-state binding signal values from that fit were plotted against ENAH concentration and fit to a single-site specific binding model in Prism to obtain dissociation constants. Errors reported are the standard deviation of two replicates.
Monomeric ENAH, EVL, or VASP EVH1 domains for use in BLI and ITC experiments, or ENAH EVH1-peptide fusions for crystallography was cloned into a pMCSG7 vector (gift from Frank Gertler, MIT), which places a 6×-His and TEV cleavage tag N-terminal to the EVH1 domain. These constructs were transformed into Rosetta2(DE3) cells and grown in 2×YT media supplemented with 100 μg/mL ampicillin. Cells were grown while shaking at 37° C. to an O.D. 600 of 0.5-0.7, and then cooled on ice for at least 20 minutes. They were then induced with 0.5 mM IPTG and grown while shaking at 18° C. overnight. […]

As to FDDFPPPPPPPPVDYEDEEAAV [ABI1 b], the affinity (Table 3, ABI1 truncation peptides), expressed as Kd, was 3.93 ± 0.875 µM. On to “PEEELPLPAFEKLNPYPTPSPPHPLYPGRRVIEFSE [TJAP]”, for which the “binding to monomeric ENAH EVH1 domain by BLI, in words” value is “mid-micromolar affinity”.
